Values of other authors in patent US20040241243A1, “Angiogenesis promotion by prostaglandin compositions and methods” (NexMed (Holdings) Inc., priority 2003, published 2004).

The chains behind the UniProt entries cited, without tags or fusion partners. Where a name states a change or a piece, a line headed by the entry shows the natural chain unless it says otherwise.
UniProt P32240: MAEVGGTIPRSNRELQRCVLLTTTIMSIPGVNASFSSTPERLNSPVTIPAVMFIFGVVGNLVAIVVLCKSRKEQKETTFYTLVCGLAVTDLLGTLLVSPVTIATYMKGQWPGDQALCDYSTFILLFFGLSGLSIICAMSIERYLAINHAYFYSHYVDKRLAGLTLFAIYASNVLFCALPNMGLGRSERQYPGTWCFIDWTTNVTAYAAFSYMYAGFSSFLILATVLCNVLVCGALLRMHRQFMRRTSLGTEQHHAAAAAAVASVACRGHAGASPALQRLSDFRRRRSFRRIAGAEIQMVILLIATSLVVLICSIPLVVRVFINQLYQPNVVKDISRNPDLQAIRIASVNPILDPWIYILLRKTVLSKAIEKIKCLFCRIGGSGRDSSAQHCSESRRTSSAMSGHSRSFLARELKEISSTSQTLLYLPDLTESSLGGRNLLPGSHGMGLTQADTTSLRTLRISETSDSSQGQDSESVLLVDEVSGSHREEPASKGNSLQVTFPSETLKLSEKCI

Molecular target: EP4 receptor (Mus musculus, UniProt P32240)
Settings: read-out: affinity for the EP4 receptor; cited from earlier work

CCCCC[C@H](O)/C=C/[C@H]1[C@H](O)CC(=O)[C@@H]1C/C=C\CCCC(=O)O [PGE2, prostaglandin E2]
Kd: ~2 nM
